{"sequences": {"note": "Protein sequences, listed by entry. Tags and fused reporters are not part of them.", "UniProt A0A2Z4HQ26, entry or part of it": "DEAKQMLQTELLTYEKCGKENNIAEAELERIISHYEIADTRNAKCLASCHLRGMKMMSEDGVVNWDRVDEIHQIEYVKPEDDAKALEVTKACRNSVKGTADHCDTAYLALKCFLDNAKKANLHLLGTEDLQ"}, "source": "paper PMC11743672", "about": "“Characterization of the ligand-binding properties of odorant-binding protein 38 from Riptortus pedestris when interacting with soybean volatiles” (Frontiers in Physiology, 2025)", "target": "RpedOBP38 (Riptortus pedestris, UniProt A0A2Z4HQ26)", "assay": "Fluorescence competitive binding assay (1-NPN displacement)", "from_the_text": "Recombinant RpedOBP38 binding to putative chemical ligands was characterized with a microplate reader (BioTek Synergy H1, United States). Fluorescence intensity values at the excitation wavelength of 337 nm and a maximum fluorescence emission wavelength of 450 nm were plotted against the free concentration of ligand for the measurement of dissociation constants, selecting candidate ligands from among 36 volatile compounds that included 11 green leaf volatiles ([Chen et al., 2018]; [Guo and Wang, 2019]; [Cheng et al., 2020]; [Hong et al., 2022]; [Tang et al., 2023]; [Zhu et al., 2023]), 11 soybean volatiles ([Wang et al., 2019a]; [Zhu et al., 2022]), 10 repellent activity volatiles ([Zhang et al., 2013]; [Zhang et al., 2014]), and 4 aggregation pheromone compounds ([Leal et al., 1995]; [Yasuda et al., 2007]). HPLC-grade methanol was used for the dissolution of the probe N-phenyl-1-naphthylamine (1-NPN) and all ligands. The ability of RpedOBP38 to bind 1-NPN was assessed by using 10 mM PBS (pH 7.4) to prepare a 2 μM purified protein solution, titrating with 1 mM 1-NPN in methanol to prepare final concentrations from 2–20 μM. RpedOBP38 binding to each ligand was evaluated in a solution consisting of 2 μM purified protein and 1-NPN, followed by titration through the addition of ligands until no further decrease in the fluorescence intensity was observed. […]", "note": "pIC50, pKi: −log10 of the molar value.", "data": [{"substance": "(+)-α-pinene", "values": [{"measurement": "pIC50", "setting": "2 μM recombinant RpedOBP38 and 1-NPN, PBS pH 7.4, three replicates", "value": "< 4.40"}, {"measurement": "pKi", "setting": "Ki = [IC50]/(1 + [1-NPN]/K1-NPN), 2 μM protein and 1-NPN, Ki > 40 considered weak binding", "value": "< 4.40"}]}]}
